Experimental data from patent publication US8952177B2 (Janssen Pharmaceutica NV, priority 2013, dated 2015).
Where a name gives a salt, the structure may show the parent alone.

Chains of the proteins cited; added tags and fusions are not shown. Lines headed by an entry give the natural chain unless they say otherwise; changes in a name come on top.
UniProt P20292: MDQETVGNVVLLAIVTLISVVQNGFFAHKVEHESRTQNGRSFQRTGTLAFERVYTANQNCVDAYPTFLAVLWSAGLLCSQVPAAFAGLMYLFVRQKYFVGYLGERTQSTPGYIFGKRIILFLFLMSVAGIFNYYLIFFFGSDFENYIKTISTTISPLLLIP

Biological target: human FLAP (Homo sapiens (Human), UniProt P20292)
Experiment: FLAP binding assay (HTRF format)
Settings: human FLAP-containing Sf-9 membranes, 25 nM HTRF ligand, 2 h; average of runs; read-out: FLAP Binding wild type HTRF Ki

Row | SMILES | Ki
1 | Cc1ccc(COc2ccc3nc(CC4(C(=O)O)CCCC4)n(Cc4ccc(Br)cc4)c3c2)nc1 [Example 9, 1-({1-(4-Bromobenzyl)-6-[(5-methylpyridin-2-yl)methoxy]-1H-benzimidazol-2-yl}methyl)cyclopentanecarboxylic acid as the TFA salt] | 18 nM
2 | Cc1ccc(COc2ccc3nc(C4CCCC[C@@H]4C(=O)O)n(Cc4ccc(Br)cc4)c3c2)nc1 (mixture of isomers) [Example 1, racemic cis-2-{1-(4-Bromobenzyl)-6-[(5-methylpyridin-2-yl)methoxy]-1H-benzimidazol-2-yl}cyclohexanecarboxylic acid] | 3.8 nM
3 | Cc1ccc(COc2ccc3nc([C@H]4[C@@H](C(=O)O)C4(C)C)n(Cc4ccc(Br)cc4F)c3c2)nc1 (stereo in doubt) [Example 16, (1S*,3R*)-3-{1-(4-Bromo-2-fluorobenzyl)-6-[(5-methylpyridin-2-yl)methoxy]-1H-benzimidazol-2-yl}-2,2-dimethylcyclopropanecarboxylic acid] | 23 nM
4 | Cc1ccc(COc2ccc3nc([C@H]4CCCC[C@H]4C(=O)O)n(Cc4ccc(OC(F)(F)F)cc4F)c3c2)nc1 (racemic) [Example 26, racemic cis-2-{1-[2-Fluoro-4-(trifluoromethoxy)benzyl]-6-[(5-methylpyridin-2-yl)methoxy]-1H-benzimidazol-2-yl}cyclohexanecarboxylic acid] | 4.3 nM
5 | Cc1ccc(COc2ccc3nc([C@@H]4[C@H](C(=O)O)C4(C)C)n(Cc4ccc(OC(F)(F)F)cc4)c3c2)nc1 (racemic) [Example 25] | 61 nM
6 | Cc1ccc(COc2ccc3nc([C@@H]4CCCC[C@@H]4C(=O)O)n(Cc4ccc(OC(F)(F)F)cc4)c3c2)nc1 (stereo in doubt) [Example 29, (1S*,2R*)-2-{6-[(5-Methylpyridin-2-yl)methoxy]-1-[4-(trifluoromethoxy)benzyl]-1H-benzimidazol-2-yl}cyclohexanecarboxylic acid] | ~2500 nM
7 | Cc1ccc(COc2ccc3nc([C@H]4CCCC[C@H]4C(=O)O)n(Cc4ccc(Br)cc4F)c3c2)nc1 (stereo in doubt) [Example 12, (1S*,2R*)-2-{1-(4-Bromo-2-fluorobenzyl)-6-[(5-methylpyridin-2-yl)methoxy]-1H-benzimidazol-2-yl}cyclohexanecarboxylic acid] | ~2000 nM
8 | Cc1ccc(COc2cc(F)c3nc(CC(C)(C)C(=O)O)n(Cc4ccc(Br)cc4)c3c2)nc1 [Example 60, 3-{1-(4-Bromobenzyl)-4-fluoro-6-[(5-methylpyridin-2-yl)methoxy]-1H-benzimidazol-2-yl}-2,2-dimethylpropanoic acid] | 51 nM
9 | Cn1ccc(COc2ccc3nc(C4CCCC[C@H]4C(=O)O)n(Cc4ccc(Br)cc4)c3c2)n1 (mixture of isomers) [Example 41, racemic trans-2-{1-(4-Bromobenzyl)-6-[(1-methyl-1H-pyrazol-3-yl)methoxy]-1H-benzimidazol-2-yl}cyclohexanecarboxylic acid as the TFA salt] | 11 nM
10 | Cn1ccc(COc2ccc3nc([C@@H]4CCCC[C@@H]4C(=O)O)n(Cc4ccc(OC(F)(F)F)c(F)c4)c3c2)n1 (racemic) [Example 55, racemic cis-2-{1-[3-Fluoro-4-(trifluoromethoxy)benzyl]-6-[(1-methyl-1H-pyrazol-3-yl)methoxy]-1H-benzimidazol-2-yl}cyclohexanecarboxylic acid] | 12 nM
11 | Cc1ccc(COc2cc(F)c3nc([C@@H]4CCCC[C@@H]4C(=O)O)n(Cc4ccc(Br)cc4)c3c2)nc1 (racemic) [Example 59, racemic cis-2-{1-(4-Bromobenzyl)-4-fluoro-6-[(5-methylpyridin-2-yl)methoxy]-1H-benzimidazol-2-yl}cyclohexanecarboxylic acid] | 2.9 nM
12 | Cc1ccc(COc2ccc3nc([C@H]4CCCC[C@H]4C(=O)O)n(Cc4ccc(OC(F)(F)F)c(Cl)c4)c3c2)nc1 (racemic) [Example 32, racemic cis-2-{1-[3-Chloro-4-(trifluoromethoxy)benzyl]-6-[(5-methylpyridin-2-yl)methoxy]-1H-benzimidazol-2-yl}cyclohexanecarboxylic acid] | 5.6 nM
13 | CCC(CC)(Cc1nc2ccc(OCc3ccn(C)n3)cc2n1Cc1ccc(OC(F)(F)F)c(F)c1)C(=O)O [Example 57, 2-Ethyl-2-({1-[3-fluoro-4-(trifluoromethoxy)benzyl]-6-[(1-methyl-1H-pyrazol-3-yl)methoxy]-1H-benzimidazol-2-yl}methyl)butanoic acid] | 45 nM

Results, then the compound that gave them:

Row | Ki | SMILES
14 | 14 nM | Cc1cnc(COc2ccc3nc(CC(C)(C)C(=O)O)n(Cc4ccc(Br)cc4F)c3c2)c(F)c1 [Example 129, 3-{1-(4-Bromo-2-fluorobenzyl)-6-[(3-fluoro-5-methylpyridin-2-yl)methoxy]-1H-benzimidazol-2-yl}-2,2-dimethylpropanoic acid]
15 | 13 nM | Cc1ccc(Cn2c([C@H]3CCCC[C@@H]3C(=O)O)nc3ccc(OCc4ccc(C)cn4)cc32)cc1 (racemic) [Example 120, racemic trans-2-{1-(4-Methylbenzyl)-6-[(5-methylpyridin-2-yl)methoxy]-1H-benzimidazol-2-yl}cyclohexanecarboxylic acid]
16 | 11 nM | Cc1ccc(COc2cc(F)c3nc(C4CCCC[C@@H]4C(=O)O)n(Cc4ccc(OC(F)(F)F)cc4)c3c2)nc1 (mixture of isomers) [Example 67, racemic trans-2-{4-Fluoro-6-[(5-methylpyridin-2-yl)methoxy]-1-[4-(trifluoromethoxy)benzyl]-1H-benzimidazol-2-yl}cyclohexanecarboxylic acid as the TFA salt]
17 | 2.6 nM | Cc1ccc(COc2ccc3nc([C@@H]4CCCC[C@@H]4C(=O)O)n(Cc4ccc(OC(F)(F)F)c(C)c4)c3c2)nc1 (racemic) [Example 109, racemic cis-2-{6-[(5-Methylpyridin-2-yl)methoxy]-1-[3-methyl-4-(trifluoromethoxy)benzyl]-1H-benzimidazol-2-yl}cyclohexanecarboxylic acid]
18 | 370 nM | Cc1ccc(COc2ccc3nc([C@H]4CCCC[C@H]4C(=O)O)n(Cc4ccc(N5CC(F)(F)C5)cc4F)c3c2)nc1 (stereo in doubt) [Example 166, (1R*,2S*)-2-{1-[4-(3,3-Difluoroazetidin-1-yl)-2-fluorobenzyl]-6-[5-methylpyridin-2-yl)methoxy]-1H-benzimidazol-2-yl}cyclohexanecarboxylic acid]
19 | 0.34 nM | Cc1cnc(COc2ccc3nc([C@H]4CCCC[C@H]4C(=O)O)n(Cc4ccc(N5CCC(F)CC5)cc4F)c3c2)c(F)c1 (stereo in doubt) [Example 174, (1R*,2S*)-2-{1-[2-Fluoro-4-(4-fluoropiperidin-1-yl)benzyl]-6-[(3-fluoro-5-methylpyridin-2-yl)methoxy]-1H-benzimidazol-2-yl}cyclohexanecarboxylic acid]
20 | 17 nM | CCC(CC)(Cc1nc2c(F)cc(OCc3ccc(C)cn3)cc2n1Cc1ccc(OC(F)(F)F)cc1)C(=O)O [Example 69, 2-Ethyl-2-({4-fluoro-6-[(5-methylpyridin-2-yl)methoxy]-1-[4-1-trifluoromethoxy)benzyl]-1H-benzimidazol-2-yl}methyl)butanoic acid as the TFA salt]
21 | 58 nM | Cn1ccc(COc2cc(F)c3nc([C@H]4CCCC[C@H]4C(=O)O)n(Cc4ccc(C#N)cc4)c3c2)n1 (racemic) [Example 98, racemic cis-2-{1-(4-Cyanobenzyl)-4-fluoro-6-[(1-methyl-1H-pyrazol-3-yl)methoxy]-1H-benzimidazol-2-yl}cyclohexanecarboxylic acid as the HCl salt]
22 | 8.1 nM | Cc1ccc(COc2cc(F)c3nc([C@H]4CCCC[C@@H]4C(=O)O)n(Cc4ccc(Br)cc4)c3c2)nc1 (racemic) [Example 62, racemic trans-2-{1-(4-Bromobenzyl)-4-fluoro-6-[(5-methylpyridin-2-yl)methoxy]-1H-benzimidazol-2-yl}cyclohexanecarboxylic acid]
23 | 32 nM | Cn1ccc(COc2ccc3nc([C@@H]4CCCC[C@@H]4C(=O)O)n(Cc4ccc(N5CCCCC5)cc4)c3c2)n1 (racemic) [Example 88, racemic cis-2-{6-[(1-Methyl-1H-pyrazol-3-yl)methoxy]-1-(4-piperidin-1-ylbenzyl)-1H-benzimidazol-2-yl}cyclohexanecarboxylic acid]
24 | 5.8 nM | Cc1ccc(COc2cc(Cl)c3nc(C4CCCC[C@H]4C(=O)O)n(Cc4ccc(Br)cc4)c3c2)nc1 (mixture of isomers) [Example 75, racemic cis-2-{1-(4-Bromobenzyl)-4-chloro-6-[(5-methylpyridin-2-yl)methoxy]-1H-benzimidazol-2-yl}cyclohexanecarboxylic acid]
25 | 3.7 nM | Cc1ccc(COc2ccc3nc(C4CCCC[C@H]4C(=O)O)n(Cc4ccc(N5CCC(F)(F)CC5)cc4)c3c2)nc1 (mixture of isomers) [Example 154, racemic cis-2-{1-[4-(4,4-Difluoropiperidin-1-yl)benzyl]-6-[(5-methylpyridin-2-yl)methoxy]-1H-benzimidazol-2-yl}cyclohexanecarboxylic acid]
26 | 3 nM | Cc1ccc(COc2ccc3nc([C@@H]4CCCC[C@@H]4C(=O)O)n(Cc4ccc(N5CCCCC5)cc4)c3c2)nc1 (stereo in doubt) [Example 157, (1S*,2R*)-2-{6-[(5-Methylpyridin-2-yl)methoxy]-1-(4-piperidin-1-ylbenzyl)-1H-benzimidazol-2-yl}cyclohexanecarboxylic acid]
27 | 64 nM | COc1ncc(-c2ccc(Cn3c([C@H]4CCCC[C@H]4C(=O)O)nc4ccc(OCc5ccc(C)cn5)cc43)cc2)cn1 (racemic) [Example 144, racemic cis-2-{1-[4-(2-Methoxypyrimidin-5-yl)benzyl]-6-[(5-methylpyridin-2-yl)methoxy]-1H-benzimidazol-2-yl}cyclohexanecarboxylic acid]
28 | 0.82 nM | Cc1cnc(COc2ccc3nc([C@@H]4CCCC[C@@H]4C(=O)O)n(Cc4ccc(N5CCC(F)CC5)cc4F)c3c2)c(F)c1 (stereo in doubt) [Example 173]
29 | 3.8 nM | Cc1ccc(COc2ccc3nc([C@@H]4CCCC[C@@H]4C(=O)O)n(Cc4ccc(N5CC(F)(F)C5)cc4)c3c2)nc1 (relative stereo) [Example 160, (1S*,2R*)-2-{1-[4-(3,3-Difluoroazetidin-1-yl)benzyl]-6-[(5-methylpyridin-2-yl)methoxy]-1H-benzimidazol-2-yl}cyclohexanecarboxylic acid]
